Data taken from US10195311B2, “Local delivery of drugs from self assembled coatings” (Interface Biologics, Inc., priority 2009, dated 2019).

Details: rat, in vivo, 15 mg

## Dansyl Oligofluoro [Compound 3]
  T1/2(e), T1/2(Total): 15.7 h
